Earlier results as cited in patent US20080070828A1, “Ace-Inhibitory Whey Hydrolysates” (FRIESLAND BRANDS B.V., priority 2004, published 2008).

Protein sequences, listed by entry. Tags and fused reporters are not part of them. Lines headed by an entry give the natural chain unless they say otherwise; changes in a name come on top.
UniProt P02754: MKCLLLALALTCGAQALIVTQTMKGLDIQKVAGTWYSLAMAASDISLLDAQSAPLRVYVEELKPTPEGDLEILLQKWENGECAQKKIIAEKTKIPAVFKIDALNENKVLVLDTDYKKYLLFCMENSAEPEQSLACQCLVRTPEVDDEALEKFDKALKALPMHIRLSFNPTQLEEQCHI

System: ACE
Settings: ACE-inhibitory peptides from BLG; for IC50: read-out: Literature IC50

Substance | Literature IC50 [µg/mL] | IC50 [µM]
f(102-103): ACE-inhibitory peptide from BLG (YL; UniProt P02754 118-119, looked up, fragment) | 86 | 122
f(104-105): ACE-inhibitory peptide from BLG (LF; UniProt P02754 120-121, looked up, fragment) | 97 | 350
